The chains behind the UniProt entries cited, without tags or fusion partners.
UniProt P55055, whole entry: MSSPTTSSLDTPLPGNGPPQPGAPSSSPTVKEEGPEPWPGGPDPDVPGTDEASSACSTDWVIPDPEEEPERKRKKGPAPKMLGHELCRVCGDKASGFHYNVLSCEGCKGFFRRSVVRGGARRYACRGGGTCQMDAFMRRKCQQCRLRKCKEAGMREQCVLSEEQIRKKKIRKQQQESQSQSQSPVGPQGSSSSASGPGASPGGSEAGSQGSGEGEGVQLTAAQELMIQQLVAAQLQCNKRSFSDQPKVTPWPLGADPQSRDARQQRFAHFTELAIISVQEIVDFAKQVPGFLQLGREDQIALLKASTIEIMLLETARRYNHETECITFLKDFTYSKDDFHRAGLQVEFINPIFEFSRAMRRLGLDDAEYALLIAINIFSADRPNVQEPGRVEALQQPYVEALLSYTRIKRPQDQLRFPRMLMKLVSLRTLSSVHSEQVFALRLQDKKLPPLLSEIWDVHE

For the first experiment, the target named is LXRβ (Homo sapiens (Human), UniProt P55055). Description: In vitro assay LXRβ: PathHunter NHR CHO cells, LXRβ / Steroid Receptor Co-activator Peptide enzyme fragment complementation. The class given is cell-based.
Conditions: not given
The procedure: PathHunter NHR CHO cells stably transfected with tagged full-length human LXRβ and a nuclear fusion protein containing Steroid Receptor Co-activator Peptide (SRCP). The full-length human LXRβ was tagged with the ProLink™ component of the DiscoverX Enzyme Fragment Complementation (EFC) system and the SRCP domain is fused to the enzyme acceptor component (EA) expressed in the nucleus. Cells were seeded in a total volume of 20 μL into white walled, 384-well microplates and incubated at 37° C. overnight prior to testing. Assay media contained charcoal-dextran filtered serum to reduce the level of hormones present. Final assay vehicle concentration was 1%. […] Microplates were read following signal generation with a PerkinElmer Envision instrument for chemiluminescent signal detection.
Turning to `C[C@H](CCC(=O)N1CCNCC1)[C@H]1CC[C@H]2[C@@H]3CC=C4C[C@@H](O)CC[C@]4(C)[C@H]3CC[C@]12C` [Example 2, (R)-4-((3S,8S,9S,10R,13R,14S,17R)-3-hydroxy-10,13-dimethyl-2,3,4,7,8,9,10,11,12,13,14,15,16,17-tetradecahydro-1H-cyclopenta[a]phenanthren-17-yl)-1-(piperazin-1-yl) pentan-1-one], the EC50 was in the range of 1000 to 10000 nM. Still for that read-out and setting: for `CC(=O)N1CCN(C(=O)CC[C@@H](C)[C@H]2CC[C@H]3[C@@H]4CC=C5C[C@@H](O)CC[C@]5(C)[C@H]4CC[C@]23C)CC1` [Example 3, (R)-1-(4-acetylpiperazin-1-yl)-4-((3S,8S,9S,10R,13R,14S,17R)-3-hydroxy-10,13-dimethyl-2,3,4,7,8,9,10,11,12,13,14,15,16,17-tetradecahydro-1H-cyclopenta[a]phenanthren-17-yl)pentan-1-one] the value was > 10000 nM. For `C[C@H](CCC(=O)N1CCN(C(N)=O)CC1)[C@H]1CC[C@H]2[C@@H]3CC=C4C[C@@H](O)CC[C@]4(C)[C@H]3CC[C@]12C` [Example 4, 4—((R)-4-((3S,8S,9S,10R,13R,14S,17R)-3-hydroxy-10,13-dimethyl-2,3,4,7,8,9,10,11,12,13,14,15,16,17-tetradecahydro-1H-cyclopenta[a]phenanthren-17-yl)pentanoyl)piperazine-1-carboxamide], the EC50 is > 10000 nM. The same measure, in the same setting: as for `C[C@H](CCC(=O)N1CC[S+]([O-])CC1)[C@H]1CC[C@H]2[C@@H]3CC=C4C[C@@H](O)CC[C@]4(C)[C@H]3CC[C@]12C` [Example 18, (R)-4-((3S,8S,9S,10R,13R,14S,17R)-3-hydroxy-10,13-dimethyl-2,3,4,7,8,9,10,11,12,13,14,15,16,17-tetradecahydro-1H-cyclopenta[a]phenanthren-17-yl)-1-(1-oxidothiomorpholino) pentan-1-one], the figure is > 10000 nM. For the compound `C[C@H](CCC(=O)N(C)OCCCC(F)(F)F)[C@H]1CC[C@H]2[C@@H]3CC=C4C[C@@H](O)CC[C@]4(C)[C@H]3CC[C@]12C` [Example 32, (R)-4-((3S,8S,9S,10R,13R,14S,17R)-3-hydroxy-10,13-dimethyl-2,3,4,7,8,9,10,11,12,13,14,15,16,17-tetradecahydro-1H-cyclopenta[a]phenanthren-17-yl)-N-methyl-N-(4,4,4-trifluorobutoxy)pentanamide], the EC50 was > 10000 nM.

Turning to `C[C@H](CCC(=O)N1CCCO1)[C@H]1CC[C@H]2[C@@H]3CC=C4C[C@@H](O)CC[C@]4(C)[C@H]3CC[C@]12C` [Example 33, (R)-4-((3S,8S,9S,10R,13R,14S,17R)-3-hydroxy-10,13-dimethyl-2,3,4,7,8,9,10,11,12,13,14,15,16,17-tetradecahydro-1H-cyclopenta[a]phenanthren-17-yl)-1-(isoxazolidin-2-yl)pentan-1-one], the EC50 was 250 to 1000 nM. In turn, `C[C@H](CCC(=O)N1CCCCO1)[C@H]1CC[C@H]2[C@@H]3CC=C4C[C@@H](O)CC[C@]4(C)[C@H]3CC[C@]12C` [Example 34, (R)-4-((3S,8S,9S,10R,13R,14S,17R)-3-hydroxy-10,13-dimethyl-2,3,4,7,8,9,10,11,12,13,14,15,16,17-tetradecahydro-1H-cyclopenta[a]phenanthren-17-yl)-1-(1,2-oxazinan-2-yl)pentan-1-one] registered an EC50 of 250 to 1000 nM.

Take `CON(C(=O)CC[C@@H](C)[C@H]1CC[C@H]2[C@@H]3CC=C4C[C@@H](O)CC[C@]4(C)[C@H]3CC[C@]12C)C1CC1` [Example 36, (R)—N-cyclopropyl-4-((3S,8S,9S,10R,13R,14S,17R)-3-hydroxy-10,13-dimethyl-2,3,4,7,8,9,10,11,12,13,14,15,16,17-tetradecahydro-1H-cyclopenta[a]phenanthren-17-yl)-N-methoxypentanamide]: the EC50 is < 250 nM. On the same count and under the same terms, for `C[C@H](CCC(=O)N(C)OC1CCC1)[C@H]1CC[C@H]2[C@@H]3CC=C4C[C@@H](O)CC[C@]4(C)[C@H]3CC[C@]12C` [Example 39, (R)—N-cyclobutoxy-4-((3S,8S,9S,10R,13R,14S,17R)-3-hydroxy-10,13-dimethyl-2,3,4,7,8,9,10,11,12,13,14,15,16,17-tetradecahydro-1H-cyclopenta[a]phenanthren-17-yl)-N-methylpentanamide] the value was 250 to 1000 nM; for `C[C@H](CCC(=O)N(C)OCC1CC1)[C@H]1CC[C@H]2[C@@H]3CC=C4C[C@@H](O)CC[C@]4(C)[C@H]3CC[C@]12C` [Example 41, (R)—N-(cyclopropylmethoxy)-4-((3S,8S,9S,10R,13R,14S,17R)-3-hydroxy-10,13-dimethyl-2,3,4,7,8,9,10,11,12,13,14,15,16,17-tetradecahydro-1H-cyclopenta[a]phenanthren-17-yl)-N-methylpentanamide], 1000 to 10000 nM. Turning to `C[C@H](CCC(=O)N1CC[C@H](CO)O1)[C@H]1CC[C@H]2[C@@H]3CC=C4C[C@@H](O)CC[C@]4(C)[C@H]3CC[C@]12C` [Example 43, (R)-4-((3S,8S,9S,10R,13R,14S,17R)-3-hydroxy-10,13-dimethyl-2,3,4,7,8,9,10,11,12,13,14,15,16,17-tetradecahydro-1H-cyclopenta[a]phenanthren-17-yl)-1-((R)-5-(hydroxymethyl)isoxazolidin-2-yl)pentan-1-one], the EC50 is > 10000 nM. Consider `CC[C@H]1NC[C@@H]2CON(C(=O)CC[C@@H](C)[C@H]3CC[C@H]4[C@@H]5CC=C6C[C@@H](O)CC[C@]6(C)[C@H]5CC[C@]34C)[C@@H]21` [Example 47, (R)-1-((3aS,6R,6aS)-6-ethylhexahydro-1H-pyrrolo[3,4-c]isoxazol-1-yl)-4-((3S,8S,9S,10R,13R,14S,17R)-3-hydroxy-10,13-dimethyl-2,3,4,7,8,9,10,11,12,13,14,15,16,17-tetradecahydro-1H-cyclopenta[a]phenanthren-17-yl)pentan-1-one], for which the EC50 was 1000 to 10000 nM. As to `CC[C@@H]1NC[C@@H]2CON(C(=O)CC[C@@H](C)[C@H]3CC[C@H]4[C@@H]5CC=C6C[C@@H](O)CC[C@]6(C)[C@H]5CC[C@]34C)[C@@H]21` [Example 48, (R)-1-((3aS,6S,6aS)-6-ethylhexahydro-1H-pyrrolo[3,4-c]isoxazol-1-yl)-4-((3S,8S,9S,10R,13R,14S,17R)-3-hydroxy-10,13-dimethyl-2,3,4,7,8,9,10,11,12,13,14,15,16,17-tetradecahydro-1H-cyclopenta[a]phenanthren-17-yl)pentan-1-one], the EC50 is > 10000 nM. Compound `C[C@H](CCC(=O)N1CCCCCO1)[C@H]1CC[C@H]2[C@@H]3CC=C4C[C@@H](O)CC[C@]4(C)[C@H]3CC[C@]12C` [Example 56, (R)-4-((3S,8S,9S,10R,13R,14S,17R)-3-hydroxy-10,13-dimethyl-2,3,4,7,8,9,10,11,12,13,14,15,16,17-tetradecahydro-1H-cyclopenta[a]phenanthren-17-yl)-1-(1,2-oxazepan-2-yl)pentan-1-one] registered an EC50 of 250 to 1000 nM.

Compound `CON(CC(C)C)C(=O)CC[C@@H](C)[C@H]1CC[C@H]2[C@@H]3CC=C4C[C@@H](O)CC[C@]4(C)[C@H]3CC[C@]12C` [Example 67, (R)-4-((3S,8S,9S,10R,13R,14S,17R)-3-hydroxy-10,13-dimethyl-2,3,4,7,8,9,10,11,12,13,14,15,16,17-tetradecahydro-1H-cyclopenta[a]phenanthren-17-yl)-N-isobutyl-N-methoxypentanamide] registered an EC50 of 1000 to 10000 nM.

The same experiment, now with this note: PathHunter NHR CHO cells, full-length human LXRβ and SRCP, chemiluminescent signal; read-out: LXRβ PPI.
For `CON(C)C(=O)CC[C@@H](C)[C@H]1CC[C@H]2[C@@H]3CC=C4C[C@@H](O)CC[C@]4(C)[C@H]3CC[C@]12C` [Example 1, (R)-4-((3S,8S,9S,10R,13R,14S,17R)-3-hydroxy-10,13-dimethyl-2,3,4,7,8,9,10,11,12,13,14,15,16,17-tetradecahydro-1H-cyclopenta[a]phenanthren-17-yl)-N-methoxy-N-methylpentanamide], the EC50 fell in the range of 250 to 1000 nM. Regarding `C[C@H](CCC(=O)N1CCOCC1)[C@H]1CC[C@H]2[C@@H]3CC=C4C[C@@H](O)CC[C@]4(C)[C@H]3CC[C@]12C` [Example 7, (R)-4-((3S,8S,9S,10R,13R,14S,17R)-3-hydroxy-10,13-dimethyl-2,3,4,7,8,9,10,11,12,13,14,15,16,17-tetradecahydro-1H-cyclopenta[a]phenanthren-17-yl)-1-morpholinopentan-1-one], the EC50 lay within 1000 to 10000 nM. Turning to `CON(C(=O)CC[C@@H](C)[C@H]1CC[C@H]2[C@@H]3CC=C4C[C@@H](O)CC[C@]4(C)[C@H]3CC[C@]12C)C1CCC1` [Example 38, (R)—N-cyclobutyl-4-((3S,8S,9S,10R,13R,14S,17R)-3-hydroxy-10,13-dimethyl-2,3,4,7,8,9,10,11,12,13,14,15,16,17-tetradecahydro-1H-cyclopenta[a]phenanthren-17-yl)-N-methoxypentanamide], the EC50 lay in the range of 1000 to 10000 nM. `CON(CC1CC1)C(=O)CC[C@@H](C)[C@H]1CC[C@H]2[C@@H]3CC=C4C[C@@H](O)CC[C@]4(C)[C@H]3CC[C@]12C` [Example 40, (R)—N-(cyclopropylmethyl)-4-((3S,8S,9S,10R,13R,14S,17R)-3-hydroxy-10,13-dimethyl-2,3,4,7,8,9,10,11,12,13,14,15,16,17-tetradecahydro-1H-cyclopenta[a]phenanthren-17-yl)-N-methoxypentanamide]: the EC50 is 1000 to 10000 nM.

With `C[C@H](CCC(=O)N1CC[C@@H](CO)O1)[C@H]1CC[C@H]2[C@@H]3CC=C4C[C@@H](O)CC[C@]4(C)[C@H]3CC[C@]12C` [Example 42, (R)-4-((3S,8S,9S,10R,13R,14S,17R)-3-hydroxy-10,13-dimethyl-2,3,4,7,8,9,10,11,12,13,14,15,16,17-tetradecahydro-1H-cyclopenta[a]-phenanthren-17-yl)-1-((S)-5-(hydroxymethyl)isoxazolidin-2-yl) pentan-1-one], the EC50 lay in the range of 250 to 1000 nM.

The record behind these values is patent US20230340011A1 (Asteroid Therapeutics, priority 2022, published 2023).
